Laboratory results reported in patent publication US9365613B2, “Acylated 4-amidino- and -4-guanidinobenzylamines for inhibition of plasma kallikrein” (The Medicines Company (Leipzig) GmbH, priority 2003, dated 2016).

By UniProt entry, the sequences of proteins in these tests, tags left out. Where a name states a change or a piece, a line headed by the entry shows the natural chain unless it says otherwise. Residues count along the entry.
UniProt P00748, 373-615 limits assumed: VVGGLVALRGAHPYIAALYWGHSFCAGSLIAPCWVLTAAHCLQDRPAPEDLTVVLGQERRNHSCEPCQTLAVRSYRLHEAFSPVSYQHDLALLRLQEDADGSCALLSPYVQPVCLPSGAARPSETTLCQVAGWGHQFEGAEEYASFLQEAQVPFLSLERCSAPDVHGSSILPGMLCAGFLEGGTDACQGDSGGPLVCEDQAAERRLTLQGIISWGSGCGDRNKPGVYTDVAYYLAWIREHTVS
UniProt P03952, 391-638 limits assumed: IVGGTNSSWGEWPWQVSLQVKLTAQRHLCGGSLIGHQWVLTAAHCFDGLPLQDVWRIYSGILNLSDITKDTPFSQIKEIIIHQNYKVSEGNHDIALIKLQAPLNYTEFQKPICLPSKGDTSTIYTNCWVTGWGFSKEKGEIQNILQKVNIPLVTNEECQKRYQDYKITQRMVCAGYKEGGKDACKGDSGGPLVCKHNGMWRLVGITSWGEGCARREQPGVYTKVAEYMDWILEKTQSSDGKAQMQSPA
UniProt P03952, 20-390 partner limits assumed: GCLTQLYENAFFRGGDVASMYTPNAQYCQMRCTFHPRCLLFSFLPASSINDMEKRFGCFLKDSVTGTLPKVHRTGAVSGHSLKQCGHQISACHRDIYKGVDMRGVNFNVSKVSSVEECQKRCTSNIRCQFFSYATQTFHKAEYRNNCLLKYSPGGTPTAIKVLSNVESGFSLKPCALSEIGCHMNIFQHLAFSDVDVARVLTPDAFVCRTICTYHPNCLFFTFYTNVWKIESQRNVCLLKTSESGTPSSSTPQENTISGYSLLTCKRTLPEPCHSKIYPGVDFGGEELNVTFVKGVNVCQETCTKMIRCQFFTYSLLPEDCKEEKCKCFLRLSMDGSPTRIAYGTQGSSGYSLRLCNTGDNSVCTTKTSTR
UniProt P03951, 388-625 limits assumed: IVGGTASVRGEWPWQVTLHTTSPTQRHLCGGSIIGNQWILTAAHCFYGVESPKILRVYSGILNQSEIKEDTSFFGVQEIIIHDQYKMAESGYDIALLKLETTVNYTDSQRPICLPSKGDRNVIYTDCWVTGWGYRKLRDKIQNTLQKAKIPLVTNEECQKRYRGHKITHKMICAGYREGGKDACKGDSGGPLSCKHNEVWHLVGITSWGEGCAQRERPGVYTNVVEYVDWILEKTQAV
UniProt P03951, 19-387 partner limits assumed: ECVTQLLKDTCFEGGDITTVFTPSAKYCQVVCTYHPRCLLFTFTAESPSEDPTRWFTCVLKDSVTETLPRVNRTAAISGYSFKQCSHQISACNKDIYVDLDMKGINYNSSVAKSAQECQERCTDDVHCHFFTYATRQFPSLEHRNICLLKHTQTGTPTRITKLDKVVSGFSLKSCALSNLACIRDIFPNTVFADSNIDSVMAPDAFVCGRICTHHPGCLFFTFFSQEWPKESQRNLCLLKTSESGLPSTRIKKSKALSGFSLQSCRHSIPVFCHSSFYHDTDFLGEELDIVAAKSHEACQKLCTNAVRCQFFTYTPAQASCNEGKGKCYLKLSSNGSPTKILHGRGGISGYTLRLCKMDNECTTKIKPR

Legend:
human factor XIIa = human factor XIIa (Homo sapiens, UniProt P00748); assay: Inhibitory constants for factor XIIa (substrate H-D-HHT-Gly-Arg-pNA, Chromozym XII); conditions: read-out: Ki F XIIa, tested form: 2 TFA
Method: (§1) The inhibitory effect for the individual enzymes was determined in analogy with a method which has already been described (Stürzebecher et al., J. Med. Chem. 40, 3091-3099, 1997).
(§2) Specifically for determining the inhibition of PK, 200 μl of Tris buffer (0.05 M, 0.154 M NaCI, 5% ethanol, pH 8.0; contains the inhibitor), 50 μl of substrate (Bzl-Pro-Phe-Arg-pNA in H2O) and 25 μl of PK were incubated at 25° C. After 3 min, the reaction was terminated by adding 25 μl of acetic acid (50%) and the absorption at […] was determined using a Microplate Reader (Labsystems iEMS Reader MF). The Ki values were determined, in accordance with Dixon (Biochem. J. 55, 170-171, 1953), by means of linear regression and using a computer program. The Ki values are the mean of at least three determinations.
(§3) The inhibition of factor XIa and factor XIIa was determined in an analogous manner. When determining the inhibitory constants for human factor XIa (Haemochrom Diagnostica GmbH, Essen, Germany), H-D-Lys(Z)-Pro-Arg-pNA (Chromozym PCa, Roche Diagnostics GmbH, Mannheim, Germany) was used as the substrate.
H-D-HHT-Gly-Arg-pNA (Chromozym XII, Roche Diagnostics GmbH, Mannheim, Germany) was used as the substrate for measuring the inhibitory constants of human factor XIIa (Haemochrom Diagnostica GmbH, Essen, Germany).

plasma kallikrein (PK) = plasma kallikrein (PK) (Homo sapiens, UniProt P03952); assay: Determining the inhibitory constants: inhibition of PK (substrate Bzl-Pro-Phe-Arg-pNA); conditions: read-out: Ki PK; Tris buffer pH 8.0, 25° C.; mean of at least three determinations; tested form: 2 TFA
Method: as §1, §2

human factor XIa = human factor XIa (Homo sapiens, UniProt P03951); assay: Inhibitory constants for factor XIa (substrate H-D-Lys(Z)-Pro-Arg-pNA, Chromozym PCa); conditions: read-out: Ki F XIa, tested form: 2 TFA
Method: as §1, §2, §3

SMILES: N=C(N)c1ccc(CNC(=O)CNC(=O)[C@@H](CCc2ccccc2)NS(=O)(=O)Cc2ccncc2)cc1
- Ki (human factor XIIa): 160 nM
- Ki (plasma kallikrein (PK)): 420 nM
- Ki (human factor XIa): 330 nM
